From patent US11813340B2, “PSMA targeted radiohalogenated urea-polyaminocarboxylates for cancer radiotherapy” (The Johns Hopkins University, priority 2018, dated 2023)
Read-outs that look alike come from different tables or passages of the source.

How the values were obtained:
[1] = tested on: PSMA + PC3-PIP and PSMA-PC3-flu flank xenografts; conditions: 4 H; no blocker; inhibitors reported in WO2017070482; cited from earlier work
[2] = tested on: PSMA+PC3-PIP and PSMA-PC3-flu flank xenografts
[3] = tested on: PSMA + PC3-PIP and PSMA-PC3-flu flank xenografts; experiment: Biodistribution of At-211 labeled PSMA inhibitors with and without cold blocking agent (Tables 6-8); assay type: in vivo, athymic mice; conditions: 4 H; no blocker
Protocol: 27, 2017, at 1 hour, 2-4 hours, and 21-24 hours, respectively.
Final compounds were purified by HPLC.

O=C(O)CC[C@H](NC(=O)NC(CCCCNC(=O)c1ccc([211At])cc1)C(=O)O)C(=O)O (stereo partly drawn) [YC-I-27, (2S)-2-(3-(1-Carboxy-5-(4-211At-Astatobenzamido)Pentyl)Ureido)-Pentanedioic Acid]
Biodistribution, PIP tumor [1]: 18.3 ± 2.9 % injected dose/g | Biodistribution, Stomach [1]: 13.3 ± 3.1 % injected dose/g

O=C([O-])CN1CCN(CC(=O)[O-])CCN(CC(=O)NCCCCC(=O)N(CCCC[C@H](NC(=O)N[C@@H](CCC(=O)O)C(=O)O)C(=O)O)Cc2ccc([125I])cc2)CCN(CC(=O)[O-])CC1.[Lu+3] [[^125I]VK-02-90-Lu]
Biodistribution, PIP tumor ([2]; 4-hr, Blocker YC-I-27 5 nmole): 14.3 ± 5.0 % injected dose/g | Biodistribution, PIP tumor ([2]; 24-hour, Blocker VK-02-90 1.0 nmole): 18.3 ± 3.7 % injected dose/g | Biodistribution, PIP tumor ([2]; 24-hour, Blocker VK-02-90 5.0 nmole): 10.6 ± 3.2 % injected dose/g | Biodistribution, PIP tumor ([2]; 24-hour, Blocker YC-I-27 1.0 nmole): 12.6 ± 3.1 % injected dose/g

O=C([O-])CN1CCN(CC(=O)[O-])CCN(CC(=O)NCCCCC(=O)N(CCCC[C@H](NC(=O)N[C@@H](CCC(=O)O)C(=O)O)C(=O)O)Cc2ccc([211At])cc2)CCN(CC(=O)[O-])CC1.[Lu+3] [[^211At]VK-02-90-Lu]
Biodistribution, PIP tumor [3]: 17.1 ± 5.2 % injected dose/g
